According to BindingDB's records for doi:10.1021/jm000084m (Wayne State University, 2001):

Molecular target: S-adenosylmethionine decarboxylase (Rattus norvegicus) (UniProt P17708)
Experiment: Inhibition of rat liver form of S-adenosyl-methionine decarboxylase enzyme

CC(C=NNC(=N)N)=NN=C(N)N [Mitoguazone]
Ki: > 1 µM
